# scFv variants of Ab-14 (light chain) against a SARS-CoV-2 spike peptide

Antigen: PDVDLGDISGINAS, a 14-residue peptide of the SARS-CoV-2 spike HR2 region.

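The library (AAYL50) carries one to three amino acid substitutions per variant, with no insertions or deletions. In AlphaSeq, yeast of one mating type display the scFv and yeast of the other type display the target. After mating in shaken culture at 30 °C for 16 h, diploids were selected and their barcode pairs sequenced. Each replicate has its own calibration line, from reference interactions of the BCL2 family. The assay was run in three technical replicates.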

Ab-14 is the parent antibody, in scFv form: VH, then the linker GGGGSGGGGSGGGGS, then VL. The heavy chain is unchanged in all variants.
VH: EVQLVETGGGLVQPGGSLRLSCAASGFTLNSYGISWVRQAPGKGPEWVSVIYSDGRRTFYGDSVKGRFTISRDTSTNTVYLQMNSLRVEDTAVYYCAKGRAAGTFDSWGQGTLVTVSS
VL: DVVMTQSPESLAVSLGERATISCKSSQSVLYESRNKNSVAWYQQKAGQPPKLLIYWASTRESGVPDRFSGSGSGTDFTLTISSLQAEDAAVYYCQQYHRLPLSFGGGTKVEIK

Variants are written as CDR1, CDR2 and CDR3 of the light chain (limits as in the source). Parent: KSSQSVLYESRNKNSVA, WASTRES, QQYHRLPLS.
The Kd shown is the geometric mean over detected replicates; a lower Kd is a better binder.
"nd" means that the variant was in the library but no mating with the target was seen in any replicate; the authors take this as a sign of poor binding, and no number exists.
In this assay the parent's reference entry averaged 4.4 nM; its copy inside this library read 48 nM.
Empty control strains, which show no peptide, gave a signal in 18% of pairings with library AAYL50; the median was 15 µM and 95% of these signals were weaker than 970 nM. No background was subtracted.

| # | CDR-L1 | CDR-L2 | CDR-L3 | Kd | replicates with signal |
|---|---|---|---|---|---|
| 1 | KSSQSVLVESRNKNSVA | WASTREE | QQYHRLPLS | nd | 0/3 |
| 2 | KSSQSVLYESRNKMSVA | WASTREG | QQYHVLPLS | nd | 0/3 |
| 3 | KSSQSVLYERRNKQSVA | WASTRES | QQYHRQPLS | 810 µM | 1/3 |
| 4 | KSSQSVLYMSRNKNSVA | WASTREL | QQKHRLPLS | 59 µM | 2/3 |
| 5 | KSSESVLYESRNKNSVA | WASTRMS | QQYHRLMLS | nd | 0/3 |
| 6 | KSSQSVLYESRNKNSVA | WTSTRES | QEYHRMPLS | 13 µM | 1/3 |
| 7 | KSDQSVLYESRNKNSVA | WASTRES | QQYHRLQLA | 45 nM | 3/3 |
| 8 | KSSQAVLYESRNKNSVA | WDSTRES | QHYHRLPLS | 63 nM | 3/3 |
| 9 | CSRQSVLYESRNKNSVA | WASTRES | QQYHRLPLC | 140 µM | 2/3 |
| 10 | KISQSVLYESSNKNSVA | WASTRES | QQYHRLPLS | 1.9 nM | 3/3 |
| 11 | KSSQSVLYESRQCNSVA | AASTRES | QQYHRLPLS | 1.8 nM | 3/3 |
| 12 | KSSQSVLYESANKNSVA | WASTVES | QQYHRLYLS | nd | 0/3 |
| 13 | KSPQSVLYESRNKNSVA | WASDRES | QQYHRLPLS | 810 nM | 3/3 |
| 14 | KGSQSVLYESRNKNSVA | WDSTRNS | QQYHRLPLS | 840 nM | 2/3 |
| 15 | KSSQSVLYESRNKNSVA | WASTRES | QCYERLPLS | 47 nM | 3/3 |
| 16 | KRSQSVLYESRNKNSVA | WASTRES | QHTHRLPLS | 1.8 µM | 2/3 |
| 17 | KSSQSVLYESRPKNSQA | WASPRES | QQYHRLPLS | 100 µM | 1/3 |
| 18 | KSSQSVLYESRNKNRRA | WASTRES | WQYHRLPLS | 180 µM | 3/3 |
| 19 | KSSQSVLEESRNKNSVE | WASTRES | QQYHRRPLS | 48 µM | 2/3 |
| 20 | KSSQSVLYESRVKNSVA | WASTRES | QISHRLPLS | 340 nM | 3/3 |
| 21 | KSSQSVLYVSRNKNSWA | WASTRES | QQHHRLPLS | nd | 0/3 |
| 22 | KSSQSVLYESDNKNSVA | WASTRES | AQYHRLPLS | 76 nM | 3/3 |
| 23 | KSSQSVLYESRNAWSVA | WASTREP | QQYHRLPLS | nd | 0/3 |
| 24 | KSSQSVLYESRNKNSVA | WASTRES | QDYLRLLLS | 4.4 nM | 3/3 |

Second part, the sequence after the result:

| # | Kd | replicates with signal | CDR-L1 | CDR-L2 | CDR-L3 |
|---|---|---|---|---|---|
| 25 | nd | 0/3 | KSSQSVLYESRNKMSVR | WASTRES | QQYHRLPVS |
| 26 | 55 nM | 3/3 | KSSQSVLYESRNKNSVA | WASTRTS | QPYHRLPSS |
| 27 | 21 nM | 3/3 | KSSQDVLYESINKNSVA | WASWRES | QQYHRLPLS |
| 28 | 1.9 µM | 1/3 | KSSQSVLYESRNKNSKA | LASTAES | QQYHRLPLS |
| 29 | 8.5 nM | 3/3 | KSSQSVCYEQRNKNSVA | WASTRES | QQYQRLPLS |
| 30 | 8.5 nM | 3/3 | KSSQSVLYESVNKNSVA | WASTRMS | EQYHRLPLS |
| 31 | 31 µM | 3/3 | KSSQSVLDESSNKNSVA | WASTRES | FQYHRLPLS |
| 32 | 120 nM | 3/3 | KSSQSVLYESINKNSVA | WASARES | QQYHRLPLH |
| 33 | 73 µM | 2/3 | KCSQSVLYESRNKNSVA | WASTRES | QQYWRLPGS |
| 34 | nd | 0/3 | KSSQSVLYESRNKCSVA | WASFRES | KQYHRLPLS |
| 35 | nd | 0/3 | KTSQEVLYESRNKNSRA | WASTRES | QQYHRLPLS |
| 36 | nd | 0/3 | KSSQWVLYEERNKNSVA | WASTRES | WQYHRLPLS |
| 37 | 48 nM | 3/3 | HSSQSTLYESRNKQSVA | WASTRES | QQYHRLPLS |
| 38 | 580 nM | 3/3 | KSSQSILYESRNKNPVA | WASTVES | QQYHRLPLS |
| 39 | nd | 0/3 | KSSQSVLYESRNKNSVQ | WASTWTS | QQYHRLPLS |
| 40 | nd | 0/3 | ISSQSVLYVSRNKNSVA | WASTRES | QQYHRLPLA |
| 41 | nd | 0/3 | KSSQSVLYEFRNKNSVA | WESTRES | QQYHRLPGS |
| 42 | 20 nM | 3/3 | KSSQSVLYESRNKNSVA | YASTRNS | QQYWRLPLS |
| 43 | nd | 0/3 | KSSQSVLYESRNKNSVN | LASTREH | QQYHRLPLS |
| 44 | 3.1 nM | 3/3 | KSSQSVDDESRNKQSVA | WASTRES | QQYHRLPLS |
| 45 | 270 µM | 1/3 | KNSQSVLYVSRNKNSVA | WASTRES | QRYHRLPLS |
| 46 | 1.5 µM | 1/3 | KMSQSVLYESSNKNSAA | WASTRES | QQYHRLPLS |
| 47 | nd | 0/3 | KSSQYVLYCSRNKNSVA | WASTRES | QQTHRLPLS |
| 48 | 320 nM | 1/3 | KSSQSVLYESRNFNSVA | WASTREQ | QQYTRLPLS |
| 49 | 55 nM | 3/3 | KSSQMVLYENRNKNSVA | WASTRES | QQSHRLPLS |

Top 4 of the variants detected in all replicates, tightest first:

| CDR-L1 | CDR-L2 | CDR-L3 | Kd | replicates with signal |
|---|---|---|---|---|
| KSSQSVLYESRQCNSVA | AASTRES | QQYHRLPLS | 1.8 nM | 3/3 |
| KISQSVLYESSNKNSVA | WASTRES | QQYHRLPLS | 1.9 nM | 3/3 |
| KSSQSVDDESRNKQSVA | WASTRES | QQYHRLPLS | 3.1 nM | 3/3 |
| KSSQSVLYESRNKNSVA | WASTRES | QDYLRLLLS | 4.4 nM | 3/3 |

From the AlphaSeq antibody data of Engelhart et al. 2022 (doi:10.1038/s41597-022-01779-4), copy in the FLAb collection.